# The list shows a part of the results, in another mix than the full data. Active and inactive are the calls of the source.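 The calls were made as follows: active = compounds whose inhibition of the agonist-driven luminescence signal at 20 µM reaches about 50% (limit read from the data); inactive = the rest.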
# Sequences of proteins named here, by UniProt entry; tags and fusion partners are left off.
# UniProt P51684, whole entry: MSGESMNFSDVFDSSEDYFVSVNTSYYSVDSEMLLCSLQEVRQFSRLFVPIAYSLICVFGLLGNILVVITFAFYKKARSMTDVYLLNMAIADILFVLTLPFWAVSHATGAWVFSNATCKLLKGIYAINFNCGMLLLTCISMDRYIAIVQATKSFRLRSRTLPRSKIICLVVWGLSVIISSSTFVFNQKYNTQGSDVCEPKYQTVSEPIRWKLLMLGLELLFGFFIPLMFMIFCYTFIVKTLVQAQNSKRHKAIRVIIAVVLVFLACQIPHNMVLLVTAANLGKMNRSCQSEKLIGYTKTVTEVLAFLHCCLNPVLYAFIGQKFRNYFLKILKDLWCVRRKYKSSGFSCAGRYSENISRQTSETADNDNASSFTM
# Target: C-C chemokine receptor type 6 (Homo sapiens) (UniProt P51684)
# Test: CCR6 receptor antagonists, primary screen, cell-based, CHO-K1, luminescence, beta-arrestin, uHTS (AID 493098);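 also: cells stimulated with CCL20 at 14 nM final; plate controls were DMSO with CCL20 for no effect and DMSO without agonist for full effect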
# Settings: CHO-K1 CCR6 PathHunter beta-arrestin, CCL20-stimulated, at 20 µM, hits give high values
row,Structure (SMILES),inhibition
1,CCC(=O)N(c1ccccc1)C1(COC)CCN(CCc2cccs2)CC1,inactive: 16.3%
2,CCC(=O)N(c1ccccc1)C1(COC)CCN(CCn2nnn(CC)c2=O)CC1,inactive: 3.66%

# — PubChem BioAssay AID493098 (Sanford-Burnham Center for Chemical Genomics, 2011)
